Results published in patent publication US20100137222A1, “Basic Peptides and Their Use as Combined Antibacterial-Antifungine Agents” (NOVABIOTICS LIMITED, priority 2007, published 2010).

What was measured:
[1] = system: M. furfur DSM6170; format: cell-based, Malassezia furfur
Procedure: Broth Dilution Antifungal Susceptibility Testing
The sensitivity of relevant fungal strains to peptides was determined using Clinical Laboratory Standard Institute (CLSI; formerly NCCLS) Approved Standards. Yeast susceptibility was tested using “Reference Method for Broth Dilution Antifungal Susceptibility Testing of Yeasts; Approved Standard—Second Edition M27-A”.

[2] = system: P. acnes DSM1897; format: cell-based, Propionibacterium acnes; conditions: Table 2
Procedure: Broth Dilution Antibacterial Susceptibility Testing
The sensitivity of relevant bacterial strains to peptides was determined using Clinical Laboratory Standard Institute (CLSI; formerly NCCLS) Approved Standards. Bacterial susceptibility was tested using “Methods for Dilution Antimicrobial Susceptibility Tests for Bacteria That Grow […]; Approved Standard—Seventh Edition M7-A7”

N=C(N)NCCC[C@H](NC(=O)[C@H](CCCNC(=N)N)NC(=O)[C@H](CCCNC(=N)N)NC(=O)[C@H](CCCNC(=N)N)NC(=O)[C@H](CCCNC(=N)N)NC(=O)[C@H](CCCNC(=N)N)NC(=O)[C@H](CCCNC(=N)N)NC(=O)[C@H](CCCNC(=N)N)NC(=O)[C@@H](N)CCCNC(=N)N)C(=O)O [NP316, RRRRRRRRR]
Antimicrobial Activity (MIC) M. furfur DSM6170 ([1]; Table 2): 125 µM | MIC against Malassezia furfur DSM6170 ([1]; Table 3, unstarred values): 125 µM (≈ 178 µg/mL) | Antimicrobial Activity (MIC) P. acnes DSM1897 [2]: 31.3 µM

Values after ≈ are worked out from the molar mass of the structure shown.
